Data published in US5523308A, “Peptidyl heterocycles useful in the treatment of thrombin related disorders” (priority 1995, dated 1996).

Biological target: T1, human alpha-thrombin (Homo sapiens, UniProt P00734)
T1 construct: commercial human alpha-thrombin (American Diagnostica); purchased American Diagnostica
Assay: Thrombin-catalyzed hydrolysis of chromogenic substrate Spectozyme TH (in vitro enzyme assay)
Assay type: biochemical

CC1CNc2c(cccc2S(=O)(=O)N[C@@H](CCCNC(=N)N)C(=O)N2CC[C@@H](C)C[C@@H]2C(=O)O)C1 (stereo partly shown) [Argatroban, reference compound]
Ki: 10 nM
